Values quoted from earlier work as cited in article PMC3190643 (2011).

What was measured:
MMP-14 = conditions: read-out: Ki, MMP-14; reported earlier; cited from earlier work
MMP-1 = conditions: read-out: Ki, MMP-1; reported earlier; cited from earlier work
MMP-9 = conditions: read-out: Ki, MMP-9; reported earlier; cited from earlier work
MMP-3 = conditions: read-out: Ki, MMP-3; reported earlier; cited from earlier work

## CC(=O)Nc1ccc(Oc2ccc(S(=O)(=O)CC3CS3)cc2)cc1 (stereo not shown) [Compound M3]
MMP-14
  Ki: 0.68 ± 0.05 µM
MMP-1
  Ki: 5.4 ± 0.4 µM
MMP-9
  Ki: 0.13 ± 0.01 µM
MMP-3
  Ki: 12.2 ± 0.9 µM
